{
  "source": "patent US20100120039A1",
  "about": "(published 2010)",
  "test_system": "MCF-7 WT cells",
  "test": "Anchorage-independent soft agar growth assay",
  "type": "cell-based, human",
  "conditions": "herceptin 10 μg/ml, basal or with heregulin",
  "note": "“Also recorded” adds a separate entry of the source.",
  "data": [
    {"substance": "herceptin: humanized monoclonal antibody directed against the extracellular domain of HER2", "values": [
      {"measurement": "anchorage-independent growth", "result": "had no effect; also recorded: did not affect"}
    ]}
  ]
}
